Assay: Serum kinetics and absolute bioavailability of ^14 C-labelled CDP-choline and "ASONIC" after i.v. and oral administration in Cynomolgus monkeys
Type: in vivo, Cynomolgus monkey
Protocol: From the end of the curves serum concentration/time, it was possible to calculate the constant of the apparent elimination speed from the organism as well as the relative half-life. These values were utilized in calculating the AUC T30 hours →T.infin. for the total of the curves concentration/time in the same animal. The AUC To →T30 hrs was calculated by means of the trapezium methods. […] For each dosage, a randomized cross-over procedure was used. Seriated blood samples were collected until 30 hours after each administration. From the single curves concentration/time it was possible to calculate the AUC To →T30 hrs. After each administration, including the intravenous one, urine was collected at the following time intervals: 0-24 hours, 24-48 hours and 48-72 hours.

C[N+](C)(C)CCOP(=O)(O)OP(=O)([O-])OC[C@H]1O[C@@H](n2ccc(N)nc2=O)[C@H](O)[C@@H]1O [CDP-choline, cytidine diphosphocholine]
Serum concentration (monkey no. 1, 200 mg/kg per os, 4 hr): 172 DPM/ml
Serum concentration (monkey no. 1, 200 mg/kg per os, 30 hr): 385 DPM/ml
Serum concentration (monkey no. 2, 200 mg/kg per os, 4 hr): 135 DPM/ml
